For experiment [1], the target named is T1, ACVR1 (Homo sapiens, UniProt Q04771).
T1 construct: purchased ThermoFisher
T1 sequence (Q04771 21-509): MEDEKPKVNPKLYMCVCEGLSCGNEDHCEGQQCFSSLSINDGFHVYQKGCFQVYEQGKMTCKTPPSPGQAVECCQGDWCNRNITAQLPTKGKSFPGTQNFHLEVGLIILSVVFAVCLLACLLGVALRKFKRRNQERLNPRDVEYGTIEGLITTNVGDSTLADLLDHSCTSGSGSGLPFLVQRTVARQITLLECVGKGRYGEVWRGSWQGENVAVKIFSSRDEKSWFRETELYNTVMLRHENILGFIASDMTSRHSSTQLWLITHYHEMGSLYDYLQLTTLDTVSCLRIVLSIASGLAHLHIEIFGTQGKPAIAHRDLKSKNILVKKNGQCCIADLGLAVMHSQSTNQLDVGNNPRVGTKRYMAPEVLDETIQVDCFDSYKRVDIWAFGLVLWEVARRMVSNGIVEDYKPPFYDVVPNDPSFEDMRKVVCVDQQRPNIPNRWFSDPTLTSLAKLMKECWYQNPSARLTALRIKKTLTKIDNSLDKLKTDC
The experiment can be described thus: ThermoFisher (Lantha) kinase assay, inhibition of ACVR1. The experiment is classed as biochemical. The settings on record: in vitro.

The chains behind the UniProt entries cited, without tags or fusion partners. Residues count along the entry.
UniProt P37023, 22-503: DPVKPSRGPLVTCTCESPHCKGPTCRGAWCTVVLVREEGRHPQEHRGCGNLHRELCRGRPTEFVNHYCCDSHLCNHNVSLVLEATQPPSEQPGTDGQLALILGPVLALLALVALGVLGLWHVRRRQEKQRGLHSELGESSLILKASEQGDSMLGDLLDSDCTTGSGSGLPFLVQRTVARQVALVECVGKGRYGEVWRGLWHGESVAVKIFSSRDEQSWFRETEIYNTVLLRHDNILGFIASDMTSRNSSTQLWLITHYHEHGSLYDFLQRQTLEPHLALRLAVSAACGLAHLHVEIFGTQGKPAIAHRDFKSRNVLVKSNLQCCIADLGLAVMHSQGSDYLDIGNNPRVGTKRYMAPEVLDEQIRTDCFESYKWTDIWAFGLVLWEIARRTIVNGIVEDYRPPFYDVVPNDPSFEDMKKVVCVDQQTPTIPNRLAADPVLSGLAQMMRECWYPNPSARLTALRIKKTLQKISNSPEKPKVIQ

Experiment [2] has as its target T2, ACVRL1 (Homo sapiens, UniProt P37023). The experiment can be described thus: ThermoFisher (Lantha) kinase assay, inhibition of ACVRL1. To be noted: in vitro, NA = not active at 1 μM. Details: purchased ThermoFisher. The experiment is classed as biochemical.
Experiment [3] concerns the target T2, ACVRL1. The experiment can be described thus: Promega NanoBRET live-cell target engagement, ACVRL1. The settings on record: NanoBRET ACVRL1 IC50 (μM), in cellulo; NI = No inhibition at 40 μM.

pIC50: −log10 of the molar value.

Experimental findings from patent publication US20260217660A1, “INHIBITORS OF ACTIVIN RECEPTOR TYPE I (ACVRI) AND ACTIVIN RECEPTOR LIKE TYPE I (ACVRLI), AND METHODS USING SAME” (Baylor College of Medicine, priority 2023, published 2026) are described below.

With `COc1cc(-c2nc3ccc(C(=O)NCCN4CCN(c5ccccc5)CC4)cc3n2C2CCC2)cc(OC)c1OC` [CDD-2786, 1-cyclobutyl-N-(2-(4-phenylpiperazin-1-yl)ethyl)-2-(3,4,5-trimethoxyphenyl)-1H-benzo[d]imidazole-6-carboxamide], the pIC50 is 7.65 in experiment [1] and 7.73 in experiment [2]. In the case of `COc1cc(-c2nc3ccc(C(=O)NCCCN4CCN(c5ccccn5)CC4)cc3n2C2CCC2)cc(OC)c1OC` [CDD-2787, 1-cyclobutyl-N-(3-(4-(pyridin-2-yl)piperazin-1-yl)propyl)-2-(3,4,5-trimethoxyphenyl)-1H-benzo[d]imidazole-6-carboxamide], the values for the pIC50 in experiment [1] and in experiment [2] were 8.42 and 8.01, respectively. In experiment [3], this compound registered a half-inhibitory concentration (IC50) of 36.7 µM. On to `COc1cc(-c2nc3ccc(C(=O)NCCC(=O)O)cc3n2C2CCC2)cc(OC)c1OC` [CDD-2464, 3-(1-cyclobutyl-2-(3,4,5-trimethoxyphenyl)-1H-benzo[d]imidazole-6-carboxamido)propanoic acid], for which the pIC50 in experiment [1] was 6.69; in experiment [2], 6.88. As for `CNC(=O)c1ccc2nc(-c3cc(OC)c(OC)c(OC)c3)n([C@H]3CC[C@H](C(=O)NC)C3)c2c1` [CDD-2234, N-methyl-1-((1S,3S)-3-(methylcarbamoyl)cyclopentyl)-2-(3,4,5-trimethoxyphenyl)-1H-benzo[d]imidazole-6-carboxamide], the pIC50 was 7.10 in experiment [1] and 7.15 in experiment [2]. With `COc1cc(-c2nc3ccc(C(=O)NCC4(O)CCN(Cc5ccccc5)CC4)cc3n2C2CCC2)cc(OC)c1OC` [CDD-2795, N-((1-benzyl-4-hydroxypiperidin-4-yl)methyl)-1-cyclobutyl-2-(3,4,5-trimethoxyphenyl)-1H-benzo[d]imidazole-6-carboxamide], the pIC50 is 8.47 in experiment [1] and 8.38 in experiment [2]. This compound also returned an IC50 in experiment [3] of 8.55 µM. As for `CNC(=O)[C@H]1C[C@H](n2c(-c3ccc(OC)c(OC)c3)nc3ccc(C(=O)NCCCN4CCN(c5cccc(C)c5C)CC4)cc32)C1` [CDD-2421, 2-(3,4-dimethoxyphenyl)-N-(3-(4-(2,3-dimethylphenyl)piperazin-1-yl)propyl)-1-((1r,3r)-3-(methylcarbamoyl)cyclobutyl)-1H-benzo[d]imidazole-6-carboxamide], the pIC50 is 8.10 in experiment [1] and 7.11 in experiment [2]. For the same compound, the half-maximal inhibitory concentration (IC50) in experiment [3] is 38 µM.

As for `COc1ccc(-c2cccc(-c3nc4ccc(C(=O)NCCCN(C)C)cc4n3C3CCC3)n2)cc1` [CDD-2620, 1-cyclobutyl-N-(3-(dimethylamino)propyl)-2-(6-(4-methoxyphenyl)pyridin-2-yl)-1H-benzo[d]imidazole-6-carboxamide], in experiment [1], the pIC50 is 5.73. `COc1cc(-c2nc3ccc(C(=O)NC4CC(N5CCN(c6ccccc6)CC5)C4)cc3n2C2CCC2)cc(OC)c1OC` (centres unmarked) [CDD-2788, 1-cyclobutyl-N-(3-(4-phenylpiperazin-1-yl)cyclobutyl)-2-(3,4,5-trimethoxyphenyl)-1H-benzo[d]imidazole-6-carboxamide]: the negative logarithm of the IC50 (pIC50) is 7.61 in experiment [1] and 7.88 in experiment [2].

As for `COc1cc(-c2nc3ccc(C(=O)NCCCN(C)C)cc3n2C2CCC2)cc(OC)c1OC` [CDD-2789, 1-cyclobutyl-N-(3-(dimethylamino)propyl)-2-(3,4,5-trimethoxyphenyl)-1H-benzo[d]imidazole-6-carboxamide], the pIC50 in experiment [1] is 8.19. Regarding `COc1cc(-c2nc3ccc(C(=O)NCCCO)cc3n2C2CCC2)cc(OC)c1OC` [CDD-2465, 1-cyclobutyl-N-(3-hydroxypropyl)-2-(3,4,5-trimethoxyphenyl)-1H-benzo[d]imidazole-6-carboxamide], the pIC50 is 7.36 in experiment [1] and 7.38 in experiment [2]. On to `CNC(=O)[C@H]1C[C@H](n2c(-c3ccc(C(N)=O)cc3)nc3ccc(C(=O)NCCCN4CCN(c5ccccc5)CC4)cc32)C1` [CDD-2339, 2-(4-carbamoylphenyl)-1-((1r,3r)-3-(methylcarbamoyl)cyclobutyl)-N-(3-(4-phenylpiperazin-1-yl)propyl)-1H-benzo[d]imidazole-6-carboxamide], for which the pIC50 in experiment [1] was 7.08; in experiment [2] it was 6.08. For `CNC(=O)CCCn1c(-c2cc(OC)c(OC)c(OC)c2)nc2ccc(C(=O)NCCCN3CCN(c4ccccc4)CC3)cc21` [CDD-2316, 1-(4-(methylamino)-4-oxobutyl)-N-(3-(4-phenylpiperazin-1-yl)propyl)-2-(3,4,5-trimethoxyphenyl)-1H-benzo[d]imidazole-6-carboxamide] the same measures were 6.89 and 6.09. On the same counts, the results for `COc1cc(-c2nc3ccc(C(=O)NCCC(=O)N4CCN(c5cccc(C)c5C)CC4)cc3n2C2CCC2)cc(OC)c1OC` [CDD-2467, 1-cyclobutyl-N-(3-(4-(2,3-dimethylphenyl)piperazin-1-yl)-3-oxopropyl)-2-(3,4,5-trimethoxyphenyl)-1H-benzo[d]imidazole-6-carboxamide] are 7.89 and 6.93.

In the case of `CN(C)CCCNC(=O)c1ccc2nc(-c3cc(F)cc(F)c3)n(C3CCC3)c2c1` [CDD-2618, 1-cyclobutyl-2-(3,5-difluorophenyl)-N-(3-(dimethylamino)propyl)-1H-benzo[d]imidazole-6-carboxamide], the figures for the pIC50 in experiment [1] and in experiment [2] were 6.14 and 5.67, respectively. On the same counts, the results for `CNC(=O)[C@H]1C[C@H](n2c(-c3cc(OC)cc(OC)c3)nc3ccc(C(=O)NCCCN4CCN(c5ccccc5)CC4)cc32)C1` [CDD-2314, 2-(3,5-dimethoxyphenyl)-1-((1r,3r)-3-(methylcarbamoyl)cyclobutyl)-N-(3-(4-phenylpiperazin-1-yl)propyl)-1H-benzo[d]imidazole-6-carboxamide] are 8.14 and 7.49.

In the case of `CN(C)CCCNC(=O)c1ccc2nc(-c3ccnc4ccccc34)n(C3CCC3)c2c1` [CDD-2624, 1-cyclobutyl-N-(3-(dimethylamino)propyl)-2-(quinolin-4-yl)-1H-benzo[d]imidazole-6-carboxamide], the pIC50 in experiment [1] was 6.63; in experiment [2] it was 6.14. As to `CN(C)CCCNC(=O)c1ccc2nc(-c3cccc(-c4ccccc4)c3)n(C3CCC3)c2c1` [CDD-2621, 2-([1,1′-biphenyl]-3-yl)-1-cyclobutyl-N-(3-(dimethylamino)propyl)-1H-benzo[d]imidazole-6-carboxamide], the pIC50 in experiment [1] was 5.42. Still for that read-out and setting: to `CN(C)CCCNC(=O)c1ccc2nc(-c3cncc4ccccc34)n(C3CCC3)c2c1` [CDD-2623, 1-cyclobutyl-N-(3-(dimethylamino)propyl)-2-(isoquinolin-4-yl)-1H-benzo[d]imidazole-6-carboxamide] belongs 5.73.

On to `CNC(=O)[C@H]1C[C@H](n2c(-c3ccccc3)nc3ccc(C(=O)NCCCN4CCN(c5ccccc5)CC4)cc32)C1` [CDD-2317, 1-((1r,3r)-3-(methylcarbamoyl)cyclobutyl)-2-phenyl-N-(3-(4-phenylpiperazin-1-yl)propyl)-1H-benzo[d]imidazole-6-carboxamide], for which the pIC50 was 6.84 in experiment [1] and 5.69 in experiment [2]. On the same counts, the results for `CN(C)CCCNC(=O)c1ccc2nc(-c3ccncc3)n(C3CCC3)c2c1` [CDD-2619, 1-cyclobutyl-N-(3-(dimethylamino)propyl)-2-(pyridin-4-yl)-1H-benzo[d]imidazole-6-carboxamide] are 6.32 and 5.86. On the same counts, the results for `CNC(=O)[C@H]1C[C@H](n2c(-c3cc(OC)ccc3OC)nc3ccc(C(=O)NCCCN4CCN(c5cccc(C)c5C)CC4)cc32)C1` [CDD-2420, 2-(2,5-dimethoxyphenyl)-N-(3-(4-(2,3-dimethylphenyl)piperazin-1-yl)propyl)-1-((1r,3r)-3-(methylcarbamoyl)cyclobutyl)-1H-benzo[d]imidazole-6-carboxamide] are 8.31 and 7.62. On the same counts, the results for `CNC(=O)[C@H]1C[C@H](n2c(-c3cc(OC)c(OC)c(OC)c3)nc3ccc(C(=O)NCCCN4CCN(c5ccccc5)CC4)cc32)C1` [CDD-2235, 1-((1r,3r)-3-(methylcarbamoyl)cyclobutyl)-N-(3-(4-phenylpiperazin-1-yl)propyl)-2-(3,4,5-trimethoxyphenyl)-1H-benzo[d]imidazole-6-carboxamide] are 8.29 and 7.76. For the compound `CN(C)CCCNC(=O)c1ccc2nc(-c3c[nH]c4ncccc34)n(C3CCC3)c2c1` [CDD-2625, 1-cyclobutyl-N-(3-(dimethylamino)propyl)-2-(1H-pyrrolo[2,3-b]pyridin-3-yl)-1H-benzo[d]imidazole-6-carboxamide], the pIC50 in experiment [1] was 7.79; in experiment [2], 7.70. On the same counts, the results for `CNC(=O)[C@H]1C[C@H](n2c(-c3cc(OC)c(OC)c(OC)c3)nc3ccc(C(=O)N4CCN(c5ccccc5)CC4)cc32)C1` [CDD-2279, (1r,3r)-N-methyl-3-(6-(4-phenylpiperazine-1-carbonyl)-2-(3,4,5-trimethoxyphenyl)-1H-benzo[d]imidazol-1-yl)cyclobutane-1-carboxamide] are 5.70 and 5.90.

What is called pIC50 is −log10 of the IC50, conventionally taken in molar units. High values mean a low IC50, low ones a high IC50. As usually defined, the IC50 is the concentration that gives 50% inhibition. Low values mean greater potency, high ones weaker potency.
